Experimental findings from PMC10724293, “New ruthenium-xanthoxylin complex eliminates colorectal cancer stem cells by targeting the heat shock protein 90 chaperone” (Cell Death & Disease, 2023) are described below.

In the test the test system is OVCAR-3. In words: Alamar blue cytotoxicity assay. The class given is cell-based. The note with it: Homo sapiens, 72 h, read-out: IC50 and 95%CI. How it is done: The Alamar blue assay was used to determine cell viability as previously described. Cells were seeded into 96-well plates at a density of 7 × 10^3 cells per well for adherent cells or 3 × 10^4 cells per well for suspended cells. The drug was added to each well after 24 h of incubation for adherent cells or immediately for suspended cells and incubated for an additional 72 h. […] Each well received 100 µM resazurin (Sigma-Aldrich Co. St. Louis, MO, United States) four (for cell lines) or 24 (for primary culture) h before the end of the incubation. A SpectraMax 190 Microplate Reader (Molecular Devices, Sunnyvale, CA, USA) was used to measure absorbance at 570 and 600 nm.
On the technique in general: Resazurin is reduced to fluorescent resorufin, in cell work by metabolically active cells.

In general, IC50 refers to the concentration at which inhibition is half-maximal. On to `COc1cccc2c1C(=O)c1c(O)c3c(c(O)c1C2=O)C[C@@](O)(C(=O)CO)C[C@@H]3O[C@H]1C[C@H](N)[C@H](O)[C@H](C)O1` [DOX, Doxorubicin], for which the IC50 came to 1010 nM.
